Assay outcomes from PubChem.
Hits are enriched below; roughly 16% of the tested compounds scored in any of these assays.
DT40 TDP1 CPT – DT40-hTDP1 cell growth loss with CPT | chicken DT40 Tdp1-/-;hTDP1 cells + 20 nM CPT, ATP luminescence, 48 h | Potency, µM (top dose mostly 46.2 µM), most hits filed as inhibitors | hit rate 12% among 420,000; also: nearly all actives have a fitted effect of over 55% in size
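Chicken DT40 Tdp1-/- cells stably complemented with human TDP1 were seeded at 400 cells/well in medium containing 20 nM camptothecin, exposed to pin-transferred compounds, and grown at 37 °C for at least 48 hr. Viability was read as ATP luminescence.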
miR-21 reporter – miR-21 reporter, rising signal | HeLa miR-21 FLuc reporter, luciferase, 48 h | Potency, µM (doses to about 38.3 µM) | 340,000 tested, under 10 active | AID 2288; active = well fitted rising curve with a large enough effect; inconclusive = small, poorly fitted or top-dose-only effect; inactive = no such curve, though single readings can be large or run the other way;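 note: miR-21 action dims this reporter so a rising signal means less miR-21 action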
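Using DMEM plus 10% FBS, HeLa miR-21-FLuc cells are incubated with test compounds (final up to about 40uM) for 48 hours; firefly luciferase signal is then imaged following reagent-mediated lysis.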
uPA generation – inhibitors of cell surface uPA generation | cell surface uPA generation assay, qHTS | Potency, µM (highest dose often 38.3 µM), hits mostly inhibitors | hit rate 0.31% among 330,000 | AID 540303; active = well fitted inhibition curve with a large enough effect; inconclusive = small, poorly fitted or top-dose-only effect; inactive = no such curve, though single readings can be large or run the other way; tested in mouse RAW 264.7 cells; also: nearly all actives have a fitted effect of over 55% in size
TDP1 inh – inhibitors of human tyrosyl-DNA phosphodiesterase TDP1; Q9NUW8; recombinant TDP1, AlphaScreen DNA substrate cleavage; hit rate 0.28% among 350,000; Potency, µM (titrated, usually from 130 µM), usual class: inhibitors; also: nearly all actives have a fitted effect of over 40% in size
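Recombinant E. coli-expressed Tdp1 (1 nM) preincubated with compound 15 min at RT, then 5'-biotin/3'-phosphotyrosine-FITC DNA substrate (15 nM) added for 5 min. AlphaScreen beads (10 ug/ml) added, 10 min RT; tyrosine-FITC cleavage read as signal loss.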
TDP1 cell noCPT – qHTS for Inhibitors of human tyrosyl-DNA phosphodiesterase 1 (TDP1): qHTS in cells in absence of CPT | hit rate 15% among 420,000 | DT40 Tdp1-/- hTDP1 cells, no CPT, ATP luminescence, 48 h | Potency, µM (top dose mostly 46.2 µM), hits mostly inhibitors; also: nearly all actives have a fitted effect of over 55% in size
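Chicken DT40 Tdp1-/- cells complemented with human TDP1, screened without camptothecin (DMSO vehicle only), 400 cells/well. Compounds pin-transferred, cells incubated at 37 °C for at least 48 hr. Growth read as ATP-dependent luminescence (CellTiter-Glo, 30 min at RT).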
Hits are given with their value; - = inactive; ? = inconclusive; . = not tested or not shown; [ ] = another dose, or the depositor's remark. Unless noted, calls follow the shape of the dose curve; as a rule, active = well fitted curve in the direction sought with a large enough effect; inconclusive = small, poorly fitted or top-dose-only effect, or another doubt; inactive = no such curve, though single readings can be large; an effect the other way counts as inactive or inconclusive.

SMILES	DT40 TDP1 CPT	miR-21 reporter	uPA generation	TDP1 inh	TDP1 cell noCPT
O=C1CN(C(=O)c2ccccc2F)C(c2ccccc2)c2cc(Cl)ccc2N1 (centres undefined)	-	-	-	.	-
O=C(CCC(=O)OCC(=O)c1ccccc1)Nc1cccc(Cl)c1	-	-	-	-	-
Cc1ccc2[nH]c(=O)c(CN(Cc3ccco3)Cc3nnnn3Cc3ccccc3)cc2c1	?	.	.	-	16µM
Cc1ccc2[nH]c(=O)c(CN(Cc3cccnc3)Cc3nnnn3CC3CCCO3)cc2c1 (centres undefined)	-	-	-	-	-
Cc1ccc2[nH]c(=O)c(CN(Cc3cccnc3)Cc3nnnn3CCN3CCOCC3)cc2c1	?	-	-	-	21µM
COc1ccc2[nH]c(=O)c(CN(Cc3nnnn3Cc3ccccc3)CC3CCCO3)cc2c1 (centres undefined)	12µM	-	-	-	?
Cc1ccc2cc(CN(Cc3ccco3)Cc3nnnn3Cc3ccco3)c(=O)[nH]c2c1	?	.	.	-	11µM
Cc1c(C)c2ccc(OCC(=O)Nc3ccc(S(N)(=O)=O)cc3)c(C)c2oc1=O	-	-	-	-	-
Cc1ccc(-c2ccc(=O)n(Cc3cccc(Br)c3)n2)cc1	-	-	-	.	-
N#Cc1cc2c(=O)n3ccccc3nc2n(-c2nnc(SCc3ccccc3F)s2)c1=O	-	-	.	-	-
Cc1cccn2c(=O)c3cc(C#N)c(=O)n(-c4nnc(SCc5ccccc5F)s4)c3nc12	?	-	.	-	6.5µM
CCc1ccc(C2N=C(N)Nc3nc4ccccc4n32)cc1 (centres undefined)	16µM	-	.	-	18µM
CC(C)c1ccc(C2=CC(c3cccc(Cl)c3)n3c(nc4ccccc43)N2)cc1 (centres undefined)	?	-	.	-	16µM
CC(C)c1ccc(C2=CC(c3cccc(Cl)c3)n3ncnc3N2)cc1 (centres undefined)	?	-	.	-	23µM
CCc1ccc(C2=CC(c3cccc(C)c3)n3c(nc4ccccc43)N2)cc1 (centres undefined)	?	-	.	-	2.6µM
Cc1cc(C)nc(SCNC(=O)c2ccc(Cl)cc2)n1	-	-	-	-	-
CCc1ccc(C2=CC(c3cccc(OC)c3OC)n3c(nc4ccccc43)N2)cc1 (centres undefined)	?	-	.	-	?
CN(C)c1ccc(C2C=C(c3ccc(Cl)cc3OC(F)F)Nc3ncnn32)cc1 (centres undefined)	9.2µM	-	-	-	18µM
CCOc1ccc(C2=CC(c3cccc(Br)c3)n3c(nc4ccccc43)N2)cc1Cl (centres undefined)	?	-	.	-	13µM
Cc1ccc(C2C=C(c3ccccc3OC(F)F)Nc3ncnn32)cc1 (centres undefined)	?	-	-	-	-
COc1ccccc1NC(=O)CSc1nnnn1C1CCCC1	-	-	-	-	-
COc1ccc(Cl)cc1NC(=O)c1cc(S(=O)(=O)N2CCCC2)cn1C	-	-	-	.	-
CC(=O)c1ccc(NC(=O)C2=CC(c3cccs3)=NS(=O)(=O)N2C)cc1	?	-	-	-	16µM
CCc1ccc(NC(=O)C2=CC(c3cccs3)=NS(=O)(=O)N2C)cc1	?	-	-	-	16µM
COc1cc(NC(=O)C2=CC(c3cccs3)=NS(=O)(=O)N2C)cc(OC)c1OC	?	-	-	.	?
SMILES	DT40 TDP1 CPT	miR-21 reporter	uPA generation	TDP1 inh	TDP1 cell noCPT
Cc1cc(F)ccc1NC(=O)Cn1c(=O)ccc2cc(S(=O)(=O)N3CCC(C)CC3)ccc21	-	-	.	-	-
CC(=O)c1cccc(NC(=O)CCc2c(C)nc3nc(CN)nn3c2C)c1	-	-	.	-	-
COc1ccc(CCn2c(=N)c(C(=O)NCc3ccco3)cc3c(=O)n4ccccc4nc32)cc1OC	7.3µM	.	-	.	6.5µM
COc1ccc(CCNC(=O)c2cc3c(=O)n4ccccc4nc3n(Cc3ccco3)c2=N)cc1OC	21µM	-	-	-	13µM
N=c1c(C(=O)NCc2ccco2)cc2c(=O)n3ccccc3nc2n1CCc1ccccc1	18µM	-	-	-	21µM
Cc1ccc(Cn2c(=N)c(C(=O)NCc3ccco3)cc3c(=O)n4ccccc4nc32)cc1	11µM	-	-	-	11µM
Cc1c(C(=O)NCC2(N3CCOCC3)CCCCC2)cnn1-c1nccc(-c2ccccc2F)n1	-[9.04 µM]	.	.	.	?
CCCCCCCCCCCCCCCC(=O)OC[C@@H](COP(=O)([O-])OCC[N+](C)(C)C)OC(=O)CCCCCCCCCCCCCCC	-	.	.	-	-
CCOc1ccccc1NS(=O)(=O)c1ccc(-n2cccn2)cc1	-	-	-	-	-
Cc1ccccc1-c1cccc(CN2CCc3nnc(C(NS(C)(=O)=O)C(C)C)n3CC2)c1 (centres undefined)	-[9.04 µM]	.	.	.	?
O=c1oc2cc(O)ccc2s1	?	.	?	-	?
Cc1ccc(-c2cc(O)cc3sc(=O)oc23)cc1C	?	-	-	.	21µM
Cc1ccccc1N(C)C(=O)c1noc2c1COc1ccccc1-2	23µM	-	.	-	15µM
COc1ccc(OC)c(NC(=O)N2CCC3(CC2)Oc2ccccc2C(=O)N3Cc2ccccc2F)c1	?	-	.	-	15µM
Brc1csc(CN2CCc3nc(Nc4ccccc4)ncc3C2)c1	21µM	-	.	-	23µM
COc1cc(Nc2ncc3c(n2)CCN(Cc2cc(Br)cs2)C3)cc(OC)c1	16µM	-	.	-	23µM
COc1cccc(CN2CCc3nc(N4CCN(C)CC4)ncc3C2)c1	?	-	.	-	?
CN1CCN(c2ncc3c(n2)CCN(Cc2cc(Br)cs2)C3)CC1	16µM	-	.	-	?
COc1ccc(OCc2nnc(SCC(=O)NC3CCCCC3)o2)cc1	-	-	-	-[0.0935 µM]	-
CCOc1ccc(/C=C/c2nc(C#N)c(N3CCN(CC)CC3)o2)cc1	6.5µM	-	.	-	5.8µM
CCOc1ccc(/C=C/c2nc(C#N)c(N3CCN(c4ccccc4)CC3)o2)cc1	?	-	.	-	-
CC1CCN(c2oc(/C=C/c3ccc(F)cc3)nc2C#N)CC1	?	-	.	-	15µM
N#Cc1nc(/C=C/c2ccc(F)cc2)oc1N1CCCCCC1	?	-	.	-	?
CCOc1ccc(/C=C/c2nc(C#N)c(N3CCC(C)CC3)o2)cc1	10µM	?	.	-	13µM
Cc1ccc(OCC(=O)NN2C(=O)c3ccccc3C2=O)c(C)c1	-	-	-	-	-
Cc1cc(NS(=O)(=O)c2ccc(NC(=O)C(C)N3C(=O)c4ccccc4C3=O)cc2)nc(C)n1 (centres undefined)	-	-	.	-	-
CC(C)(C)c1cc(NC(=O)Nc2ccc(Cl)cc2Cl)no1	?	-	-	.	?
CC(C)(C)c1cc(NC(=O)Nc2ccc(Br)cc2Cl)no1	21µM	-	-	-	?
